The text below walks through data of ChEMBL document CHEMBL4665800, “Biased Agonism at Nociceptin/Orphanin FQ Receptors: A Structure Activity Study on N/OFQ(1-13)-NH” (J Med Chem, 2020).

Amino acid sequences for entries named in this document (tags omitted).
UniProt P35372, whole entry: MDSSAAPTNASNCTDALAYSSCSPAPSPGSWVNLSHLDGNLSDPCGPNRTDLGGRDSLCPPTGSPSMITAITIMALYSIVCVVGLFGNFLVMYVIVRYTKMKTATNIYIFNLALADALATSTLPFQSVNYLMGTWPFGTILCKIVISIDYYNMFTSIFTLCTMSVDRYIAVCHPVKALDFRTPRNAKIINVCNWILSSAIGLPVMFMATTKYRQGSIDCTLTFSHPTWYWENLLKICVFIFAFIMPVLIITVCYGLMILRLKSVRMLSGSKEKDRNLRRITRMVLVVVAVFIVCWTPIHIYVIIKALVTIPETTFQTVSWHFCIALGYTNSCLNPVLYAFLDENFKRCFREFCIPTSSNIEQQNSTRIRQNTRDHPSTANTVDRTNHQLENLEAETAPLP

A word on the EC50: it is the midpoint of the concentration-response curve.

SMILES strings stand for the structures.

Experiment [1] deals with T1, Mu-type opioid receptor (Homo sapiens, UniProt P35372). Kind of experiment: Agonist activity at MOP (unknown origin) expressed in SH-SY5Y cell membranes co-expressing Gbeta1-RGFP protein assessed as induction of G protein activation incubated for 15 mins by BRET assay. The format is cell-based. (BRET reads energy transfer from a luciferase to a nearby fluorophore.)
For experiment [2], the target named is T1, Mu-type opioid receptor. Kind of experiment: Agonist activity at MOP (unknown origin) expressed in SH-SY5Y cell membranes co-expressing beta-arrestin2-RGFP protein assessed as induction of beta-arrestin2 activation incubated for 15 mins by BRET assay. Type of experiment: cell-based.

As for `C[C@@H](NC(=O)[C@@H](N)Cc1ccc(O)cc1)C(=O)N[C@@H](Cc1ccccc1)C(=O)NCC(=O)N[C@@H](Cc1ccc(O)cc1)C(=O)N1CCC[C@H]1C(=O)N[C@@H](CO)C(N)=O` [DERMORPHIN], the concentration for a half-maximal effect (EC50) is 129 nM in experiment [1] and 81.3 nM in experiment [2].
